{
  "sequences": {"note": "Sequences of proteins named here, by UniProt entry; tags and fusion partners are left off.", "UniProt P21453, whole entry": "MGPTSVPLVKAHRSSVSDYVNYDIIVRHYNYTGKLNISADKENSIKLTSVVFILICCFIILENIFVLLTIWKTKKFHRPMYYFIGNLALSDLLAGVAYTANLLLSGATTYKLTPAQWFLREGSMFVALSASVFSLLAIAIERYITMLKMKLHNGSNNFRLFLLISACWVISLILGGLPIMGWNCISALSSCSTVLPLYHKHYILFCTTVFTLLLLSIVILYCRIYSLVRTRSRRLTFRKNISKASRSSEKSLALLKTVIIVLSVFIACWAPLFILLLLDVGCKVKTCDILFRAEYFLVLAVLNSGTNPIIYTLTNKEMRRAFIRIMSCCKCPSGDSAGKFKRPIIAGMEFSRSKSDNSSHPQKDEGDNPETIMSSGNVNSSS"},
  "source": "PubChem BioAssay AID449",
  "about": "(The Scripps Research Institute Molecular Screening Center, 2006)",
  "note": "The entries are a selection whose mix differs from that of the whole data set. The source made the active and inactive calls.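 How the source made its calls: active means activation above a cutoff set at the mean activation of all tested compounds plus 3 SD (cut at about 54% in these data); inactive means the rest, inconclusive results apart.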",
  "data": [
    {"target": "Sphingosine 1-phosphate receptor 1 (Homo sapiens) (UniProt P21453)", "test": "S1P1 agonists and agonism potentiators, primary screen, cell-based, primary and confirmation screens, CRE-bla reporter (AID 449);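 further: forskolin at 4 µM as EC80 and the EC20 agonist is SEW2871; 100% = SEW2871 at its EC100 plus forskolin at EC80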", "details": "S1P1 CRE-bla cells, forskolin, beta-lactamase FRET, potentiator mode; at 9.5 µM; active compounds read high; 100% = saturating reference agonist, 0% = basal; S1P1 agonist co-added at EC20, 2 nM", "values": [
      {"smiles": "N#CC1(Nc2ccccc2)CCN(CCc2ccccc2)CC1", "activation": "inactive: -15.8%"},
      {"smiles": "COc1ccc(NC2CCN(CCc3ccccc3)CC2)c(OC)c1", "activation": "inactive: -18.8%"},
      {"smiles": "O=C(OC1CN2CCC1CC2)C1c2ccccc2Oc2ccccc21", "note": "(configuration not stated)", "activation": "inactive: -11.6%"},
      {"smiles": "CCOc1ncccc1C(=O)NCC1(N2CCOCC2)CCCCC1", "activation": "inactive: -13.6%"},
      {"smiles": "CCC(CO)(C(=O)OC1CN2CCC1CC2)c1ccccc1", "note": "(configuration not stated)", "activation": "inactive: -15.9%"},
      {"smiles": "Fc1ccccc1NC1CCN(Cc2ccccc2)CC1", "activation": "inactive: -15.2%"},
      {"smiles": "N/C(=N\\O)c1c(N)no[n+]1[O-]", "activation": "inactive: -4.2%"}
    ]}
  ]
}
